According to patent US20250243263A1 (VOYAGER THERAPEUTICS, published 2025):
Where no end group is shown, it is not given here. [ ]: non-standard residue; d: D form. pT = C[C@@H](OP(=O)(O)O)[C@H](N)C(=O)O; pS = N[C@@H](COP(=O)(O)O)C(=O)O

Amino acid sequences for entries named in this document (tags omitted). Chains listed by the source or under a name are the forms on record and can include a tag or linker.
UniProt P10636, other isoform, or with tags, fused parts or gaps limits assumed: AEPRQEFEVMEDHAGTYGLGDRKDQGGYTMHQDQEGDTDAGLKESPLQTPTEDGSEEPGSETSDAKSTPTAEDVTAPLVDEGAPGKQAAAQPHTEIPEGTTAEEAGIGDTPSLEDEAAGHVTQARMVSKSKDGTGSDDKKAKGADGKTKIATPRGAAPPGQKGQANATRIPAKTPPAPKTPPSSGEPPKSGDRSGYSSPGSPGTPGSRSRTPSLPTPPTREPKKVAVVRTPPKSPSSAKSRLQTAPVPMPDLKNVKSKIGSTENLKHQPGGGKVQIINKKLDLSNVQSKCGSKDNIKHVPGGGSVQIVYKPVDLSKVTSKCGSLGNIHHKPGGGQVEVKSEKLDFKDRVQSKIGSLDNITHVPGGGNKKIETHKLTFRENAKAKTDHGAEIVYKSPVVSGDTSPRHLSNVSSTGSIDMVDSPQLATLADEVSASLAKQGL

Legend:
AC04 peptide = biological target: T1, AC04 peptide (human, phosphothreonine at T212 and T217 of tau (peptide positions 4, 9)); experiment: one point ELISA
T1 construct: Tau-derived peptide with an N-terminal Cys
T1 peptide: CSRTPSLPTPPTREPK
Excerpt: (§1) One-point ELISA was used to determine differential binding based on the individual phosphorylation patterns of each peptide. OD values (450 nm) were collected (as shown in Table 13), where a stronger positive signal is shown as a higher OD value, which is indicative of increased binding.

wtTau C2 = biological target: T2, wtTau C2 (human); experiment: one point ELISA
T2 peptide: PTREPKKVA
Excerpt: as §1

tPeptide 5 (204-222) = biological target: T3, tPeptide 5 (204-222) (human); experiment: one point ELISA
T3 peptide: GTPGSRSR[pT]P[pS]LP[pT]PPTRE
Excerpt: as §1

[1] = biological target: enriched paired helical filament tau protein (ePHF; sarkosyl insoluble tau) (human, UniProt P10636); experiment: direct ELISA, ePHF coated
Procedure: A set of recombinant human IgG1 antibodies were prepared with clone-specific variable domain pairs selected from those presented in Table 1 and human IgG1 constant domains. These candidate antibodies were analyzed for binding to ePHF and specificity for ePHF over wild type tau by direct ELISA.
For direct ePHF and wildtype tau ELISA, plates were first coated with ePHF or wild type tau. Antigen solutions were prepared in PBS and 50 μL were pipetted into each well. Plates were covered and incubated for one hour at 37° C. or overnight at 4° C. Plates were then washed and blocked by addition of 150 μl of blocking buffer to each well and incubated one hour at room temperature. Plates were then washed before addition of serially diluted candidate antibody samples prepared in blocking buffer. Detection of candidate antibody binding was carried out by washing plates and adding a solution of enzyme-labeled secondary antibody in blocking buffer to each well. Secondary antibody binding was detected by addition of substrate and spectrophotometric analysis of resulting reaction product.

iPHF = biological target: T4, iPHF (UniProt P10636, in part); experiment: BLI (Octet), antibody on biosensor tip, iPHF in solution
T4 construct: also called iPHF tau
Procedure: Anti-human tau antibodies were assessed for affinity for iPHF by Octet (ForteBio, Menlo Park, CA) analysis. A set of recombinant human IgG1 antibodies were prepared with clone-specific variable domain pairs selected from those presented in Table 1 and human IgG1 constant domains. Candidate antibodies were immobilized on biosensor tips (ForteBio) in kinetic buffer (ForteBio). Biosensor tips were then washed before introduction of a solution of iPHF in kinetic buffer for analysis of association and dissociation with candidate antibodies.

B1: VY008 (antibody, V domains shown)
VH: QVQLVQSGAEVKKPGASVKVSCKASGYTFTGYYMHWVRQAPGQGLEWMGWINPNSGGTNYAQKFQGRVTMTRDTSISTAYMELSRLRSDDTAVYYCAGDAFDIWGQGTMVTVSS
VL: [in this place about 100 residues]FGGGTKVEIK
Q: B1 was tested. Which “OD (450 nm)” value (AC04 peptide) did it give?
A: 2.96 OD450

Q: What about the “OD (450 nm)” value (wtTau C2) of the same binder?
A: 0.125 OD450

Q: And the “OD (450 nm)” value (tPeptide 5 (204-222))?
A: 2.87 OD450

Q: And the EC50 [1]?
A: 0.27 nM

Q: And the Kd (iPHF)?
A: 2.3 nM
